Columns and labels:
MAT2a = MAT2a (Homo sapiens (Human), UniProt P31153); test: MAT2a enzymatic activity test (colorimetric assay); conditions: read-out: IC50 against MAT2a, OD620, 150 min reaction
Procedure: The Colorimetric assay method was used to detect the IC50 value of the tested compounds on MAT2a.
The specific steps were as follows: The compounds having the test starling concentration of 1 μM or 10 μM were diluted into 10 concentration points in a 3-fold gradient. 250 nL of the solutions of the compounds to be tested with 10 different concentrations were taken and added into a 384 well plate for later use. 20 μg/mL of MAT2a enzyme solution was prepared with Assay buffer (50 mM Tris, 50 mM KCl, 10 mM MgCl2, 0.05% polyoxyethylene lauryl ether, pH 8.0). 15 μL of the MAT2a enzyme solution at 20 μg/mL was add into the wells of the compounds to be tested at different concentrations; and 15 μL of Assay buffer was added into the negative control well. An incubation was carried out for 15 minutes after shaking for mixing well. A mixed substrate solution (comprising 400 μM ATP and 600 μM L-Methionine) was prepared with Assay buffer. 10 μL of the mixed substrate solution was added to the positive control well, the compound to be tested well, and the negative control well, respectively, and the reaction began, for a reaction time of 150 min. […] OD620 was read and data were processed. […]

By UniProt entry, the sequences of proteins in these tests, tags left out.
UniProt P31153, whole entry: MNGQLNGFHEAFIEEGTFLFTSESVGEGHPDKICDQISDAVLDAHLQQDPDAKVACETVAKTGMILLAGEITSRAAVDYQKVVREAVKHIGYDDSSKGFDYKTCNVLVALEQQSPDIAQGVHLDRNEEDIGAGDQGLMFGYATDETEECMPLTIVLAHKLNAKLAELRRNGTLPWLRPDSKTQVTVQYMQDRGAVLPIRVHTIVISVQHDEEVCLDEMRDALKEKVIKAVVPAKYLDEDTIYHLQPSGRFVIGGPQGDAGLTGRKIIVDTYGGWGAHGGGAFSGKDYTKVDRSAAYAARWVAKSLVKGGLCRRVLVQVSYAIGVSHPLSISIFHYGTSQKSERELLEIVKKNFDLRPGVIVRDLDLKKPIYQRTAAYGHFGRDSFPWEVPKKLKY

KP-4 cells = test: Inhibitory activity test of KP-4 cells; conditions: read-out: KP-4 cell inhibitory activity IC50; 144 h incubation
Procedure: On day 1, cell seeding: after digestion of the cells with trypsin, the cells were resuspended to 1*10^4/mL with RPMI1640 complete medium (HyClone Company, Cat. No. SH30809.01) supplemented with 10% FBS (Gibco, 10099141C), mixed evenly, and added into the 96-well plate at 100 μL/well. The plate was put back to the incubator for the adherent growth of cells. On day 2, the addition of the compounds to be tested: 100 μL of the complete medium containing the compounds (the concentration of the compound in the medium was formulated as follows: 3-fold gradient dilution from 60 μM, 10 concentration gradients in total) was added, incubated for 144 hours at 37° C., 5% CO2. On day 8, the cell culture plates were taken out from incubator and equilibrated to room temperature, excess medium was pipetted from the wells so that 50 μL of supernatant was retained, and 50 μL of CellCounting-Lite 2.0 (Nanjing Vazyme Biotech Co., Ltd., Cat. No. DD1101) reagent was added per well, and the cells were fully lysed by shaking at room temperature for 10 min, and incubated for 5 min to detect the fluorescence intensity.
(§1) % Inhibition=100−(signal of the well with the compound to be tested−signal of the well with only medium and free of cells)/(signal of the well with cells but without addition of the compound−signal of the well with only medium and free of cells)×100. […]

HCT116 MTAP-/- cells = test: Activity test of HCT116 MTAP gene homozygous deletion cells (CellTiter-Glo); conditions: read-out: HCT116 MTAP-/- Cell IC50, 120 h incubation
Procedure: On day 1, cell seeding: after digestion of the cells with trypsin, the cells were resuspended to the desired density with the complete medium (RPMI-1640 supplemented with 10% FBS; the brand of FBS is EXCELL, Cat. No. FND500; the brand of RPMI-1640 is ATCC, Cat. No. 30-2001), mixed evenly, and added into the 96-well plate at 100 μL/well with a cell density of 1000-3000 cells per well. The plate was put back to the incubator for the adherent growth of cells. On day 2, the addition of the compounds to be tested: before the addition of the compounds, the cells were starved with serum-free medium for 4 h, then the complete medium containing the corresponding concentration of compounds was added thereto, and the cells were incubated at 37° C., 5% CO2 for 120 h. On day 7, the cell culture plates were taken out from incubator and equilibrated to room temperature. 50 μL of CellTiter-Glo (Promega Company, Cat. No. G7571) reagent was added per well, and the cells were fully lysed by shaking at room temperature for 2 min, and then incubated for another 60 min to detect the fluorescence intensity. Calculation formula:
as §1

DOHH-2 cells = test: Inhibitory activity test of DOHH-2 cells; conditions: read-out: DOHH-2 cell inhibitory activity IC50; 120 h incubation, CellTiter-Glo
Procedure: On day 1, cell seeding: cells were resuspended to the desired density with DMEM complete medium (Gibico, Cat. No. 10569010) supplemented with 10% FBS (Gibco, 10099141C), mixed evenly, and added into the 384-well plate at 30 μL/well with a cell density of 800/well. The compounds to be tested were added as follows: 30 nL of DMSO solution containing the compound (the concentration of the compound in which was formulated as: 3-fold gradient dilution from 10 mM, 10 concentration points in total) was added, incubated for 120 h at 37° C., 5% CO2. On day 6, the cells treated with compounds were removed and equilibrated to room temperature, 30 μL of CellTiter-Glo (Promega company, Cat. No. G7573) reagent was added per well, and the cells were fully lysed by shaking at room temperature, and then incubated in dark at 37° C., 5% CO2 for 30 min, to detect the fluorescence intensity.
% Inhibition=100−(signal of the well with the compound to be tested−signal of the well with only medium and free of cells)/(signal of the well with cells but without the addition of the compound−signal of the well with only medium and free of cells)×100.
The log value of concentration was used as the X-axis and % Inhibition was used as the Y-axis, so as to fit the dose-effect curve and calculate the IC50 value using nonlinear regression (dose response−variable slope) in the analysis software GraphPad Prism 8.

`Cn1ncc2cc(-c3c(N)c4ccc(C(F)(F)F)nc4n(-c4ccc(Cl)cc4)c3=O)cnc21` gave an IC50 (MAT2a) of 15.8 nM and an IC50 (KP-4 cells) of 970 nM.

For `Nc1c(-c2ccn3nccc3c2)c(=O)n(-c2ccc(Cl)cc2)c2nc(C(F)(F)F)ccc12`, the IC50 (MAT2a) was 16 nM, the IC50 (HCT116 MTAP-/- cells) was 13.7 nM and the IC50 (KP-4 cells) was 410 nM. It also gave an IC50 (DOHH-2 cells) of 200 nM.

Reference: patent US20240228491A1, “METHIONINE ADENOSYLTRANSFERASE INHIBITOR, PREPARATION METHOD THEREFOR AND APPLICATION THEREOF” (SCINNOHUB PHARMACEUTICAL CO., LTD., priority 2021, published 2024)
